Experimental data from article PMC11840771 (ACS Omega, 2025).

Molecular target: HER2-TK (Homo sapiens, UniProt P04626)
Test: SPR kinetic analysis of binding to immobilized HER2-TK

For C=C(C)[C@@H]1CCC(C)=C[C@H]1c1c(O)cc(CCCCC)cc1O [CBD, cannabidiol], the ka (SPR, PBS pH 7.4 with 5% DMSO, mean ± SD) was 10.27 ± 0.38 10^2/(M·s) and the kon (read-out: association rate constant (ka)) was 1030 M⁻¹ s⁻¹.
